AlphaSeq binding of Ab-14 light chain variants to a spike HR2 peptide

Source: Engelhart et al. 2022 (doi:10.1038/s41597-022-01779-4), MIT Lincoln Laboratory and A-Alpha Bio; data file from the FLAb repository.

Target peptide (SARS-CoV-2 spike, HR2 region): PDVDLGDISGINAS

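The starting antibody came from a phage panning campaign against this peptide. AAYL50 was designed without a model: most single CDR substitutions and a random sample of double and triple ones. Affinity was read by AlphaSeq, a pooled yeast mating assay with surface-displayed partners. The frequency of each diploid, read from paired DNA barcodes, reflects how well the two displayed proteins bind. A regression on co-assayed BCL2-family reference pairs converts the normalised counts of each replicate to an apparent Kd. Each pool was mated in three replicate cultures.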

Parent scFv Ab-14: VH joined to VL by a (GGGGS)3 linker. Changes lie in the light chain CDRs alone.
VH: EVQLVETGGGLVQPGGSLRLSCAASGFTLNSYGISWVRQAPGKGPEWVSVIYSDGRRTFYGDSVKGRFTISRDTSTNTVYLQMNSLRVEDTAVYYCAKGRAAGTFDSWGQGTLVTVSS
VL: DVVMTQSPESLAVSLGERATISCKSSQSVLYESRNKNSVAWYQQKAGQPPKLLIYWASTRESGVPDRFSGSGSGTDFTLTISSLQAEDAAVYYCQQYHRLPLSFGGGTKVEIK

Sequences are complete VL domains. Numbers give log10(Kd / nM), so 0 is 1 nM and 3 is 1 µM. Smaller is tighter. The mean shown is taken over the replicates in which the pair was detected. "nd" marks a missing value. The strain was present, yet no cells mated with the target were sequenced in that replicate, which points to weak or no binding. In this assay the parent's reference entry averaged 0.65; its copy inside this library read 1.68. Background: pairings of library AAYL50 with three empty control strains gave a value in 18% of cases (median 4.19, 5th percentile 2.99). Values in that range, when seen in few replicates, are hard to tell from nonspecific mating. The control count says in how many pairings with the empty strains this scFv gave a signal, with their mean in brackets.

VL,log10 Kd (nM) by replicate,mean log10 Kd (nM),empty controls
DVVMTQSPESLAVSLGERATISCESSQSVLYESRNKNSVAWYQQKAGQPPKLLIYWASTRESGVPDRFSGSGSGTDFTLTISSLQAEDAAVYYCQNKHRLPLSFGGGTKVEIK,1.92 / 1.86 / 2.34,2.04,2/9 (4.53)
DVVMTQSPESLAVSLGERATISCKSSQSVLQYSRNKNSVAWYQQKAGQPPKLLIYWASTRESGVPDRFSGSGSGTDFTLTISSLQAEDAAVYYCQQYHELPLSFGGGTKVEIK,2.86 / 3.34 / nd,3.10,0/9
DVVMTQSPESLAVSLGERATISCKSSQSVLYESRNKNSVAWYQQKAGQPPKLLIYWARTRESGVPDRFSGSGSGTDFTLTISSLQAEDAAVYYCQQLHRLWLSFGGGTKVEIK,nd / nd / 2.80,2.80,1/9 (2.38)
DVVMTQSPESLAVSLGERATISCKSSQSALYESRNKNSVAWYQQKAGQPPKLLIYWASTRESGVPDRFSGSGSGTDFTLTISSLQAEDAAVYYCQQWHKLPLSFGGGTKVEIK,nd / 5.23 / 5.92,5.58,2/9 (3.70)
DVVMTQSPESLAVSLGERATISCKSSHSVLYESSNKNSVAWYQQKAGQPPKLLIYWASTRESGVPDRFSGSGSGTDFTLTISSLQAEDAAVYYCVQYHRLPLSFGGGTKVEIK,0.73 / 0.87 / 1.03,0.88,0/9
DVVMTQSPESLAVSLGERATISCHSYQSVLYMSRNKNSVAWYQQKAGQPPKLLIYWASTRESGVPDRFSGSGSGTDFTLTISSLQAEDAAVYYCQQYHRLPLSFGGGTKVEIK,3.13 / 2.90 / 3.16,3.06,0/9
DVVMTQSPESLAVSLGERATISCKSSQSKLYESRNINSVAWYQQKAGQPPKLLIYWESTRESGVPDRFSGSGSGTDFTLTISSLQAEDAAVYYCQQYHRLPLSFGGGTKVEIK,nd / 2.17 / nd,2.17,0/9
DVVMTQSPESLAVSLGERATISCNSSQSVLYESRNKNSVAWYQQKAGQPPKLLIYWASTRESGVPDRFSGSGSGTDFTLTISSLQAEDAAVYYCQQMHKLPLSFGGGTKVEIK,nd / nd / nd,nd,2/9 (4.94)
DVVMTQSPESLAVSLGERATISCWSSQSVEYESRNKNSVAWYQQKAGQPPKLLIYWASTRESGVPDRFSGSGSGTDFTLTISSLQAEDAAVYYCQQYHRNPLSFGGGTKVEIK,nd / nd / nd,nd,1/9 (3.24)
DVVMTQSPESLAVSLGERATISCKSGQSVLYESRNKNSVAWYQQKAGQPPKLLIYWASTRESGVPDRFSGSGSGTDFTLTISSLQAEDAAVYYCQQYCRLPLVFGGGTKVEIK,2.10 / 2.08 / 3.82,2.66,2/9 (2.65)
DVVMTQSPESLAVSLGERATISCKSSQSVLYESRNKNSVAWYQQKAGQPPKLLIYWASTREQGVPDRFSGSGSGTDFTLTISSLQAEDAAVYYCQQYHHLPLSFGGGTKVEIK,1.26 / 1.55 / 2.11,1.64,1/9 (2.53)
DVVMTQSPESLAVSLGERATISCKSSQSVLYESGNPNSVAWYQQKAGQPPKLLIYWASTRESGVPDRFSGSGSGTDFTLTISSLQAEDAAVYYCQQYTRLPLSFGGGTKVEIK,0.71 / 1.09 / 1.15,0.98,0/9
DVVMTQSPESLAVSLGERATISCKSSQSVLYESRNKVSVAWYQQKAGQPPKLLIYWASARESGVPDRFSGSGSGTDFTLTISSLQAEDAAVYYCQQYHRSPLSFGGGTKVEIK,4.92 / 3.92 / 3.53,4.12,4/9 (4.29)
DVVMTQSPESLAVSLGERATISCDSSQSVLYESRNKNSVAWYQQKAGQPPKLLIYWISTRESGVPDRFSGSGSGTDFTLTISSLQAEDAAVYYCSQYHRLPLSFGGGTKVEIK,nd / nd / nd,nd,2/9 (3.22)
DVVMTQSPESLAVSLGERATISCKSSQSVLYEMRNMNSVAWYQQKAGQPPKLLIYWASTRESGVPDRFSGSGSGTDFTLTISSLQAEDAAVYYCQQYHRLALSFGGGTKVEIK,nd / nd / nd,nd,0/9
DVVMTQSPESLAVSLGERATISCKESQSQLYESRNKNSVAWYQQKAGQPPKLLIYWASTRESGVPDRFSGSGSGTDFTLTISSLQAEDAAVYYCQQYHVLPLSFGGGTKVEIK,nd / nd / nd,nd,0/9
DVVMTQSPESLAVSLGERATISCKSSQSVLYESRCKNSVAWYQQKAGQPPKLLIYWHSTREPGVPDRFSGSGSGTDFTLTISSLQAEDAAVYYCQQYHRLPLSFGGGTKVEIK,5.23 / nd / nd,5.23,1/9 (2.16)
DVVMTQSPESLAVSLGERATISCKSSQSVLEESRNKNSVAWYQQKAGQPPKLLIYWASTRHSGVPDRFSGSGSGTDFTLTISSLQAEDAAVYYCFQYHRLPLSFGGGTKVEIK,1.62 / 3.33 / 4.87,3.27,1/9 (4.59)
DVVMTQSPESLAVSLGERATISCKSSQSGLYESRNKNEVAWYQQKAGQPPKLLIYWPSTRESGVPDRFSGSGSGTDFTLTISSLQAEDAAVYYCQQYHRLPLSFGGGTKVEIK,nd / nd / 4.90,4.90,1/9 (4.99)
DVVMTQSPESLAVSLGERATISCKSSQSVLYESRNKNSSAWYQQKAGQPPKLLIYWARTRESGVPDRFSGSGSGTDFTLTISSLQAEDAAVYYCQCYHRLPLSFGGGTKVEIK,nd / 4.64 / nd,4.64,1/9 (4.08)
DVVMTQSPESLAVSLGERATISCKSSQPVLYESRNCNSVAWYQQKAGQPPKLLIYWASTRERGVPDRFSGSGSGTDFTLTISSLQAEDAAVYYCQQYHRLPLSFGGGTKVEIK,0.55 / 0.80 / 0.68,0.68,2/9 (4.55)

Top 2 of the variants detected in all replicates, tightest first:

VL,log10 Kd (nM) by replicate,mean log10 Kd (nM),empty controls
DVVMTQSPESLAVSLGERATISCKSSQPVLYESRNCNSVAWYQQKAGQPPKLLIYWASTRERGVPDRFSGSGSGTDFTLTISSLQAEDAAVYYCQQYHRLPLSFGGGTKVEIK,0.55 / 0.80 / 0.68,0.68,2/9 (4.55)
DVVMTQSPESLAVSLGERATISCKSSHSVLYESSNKNSVAWYQQKAGQPPKLLIYWASTRESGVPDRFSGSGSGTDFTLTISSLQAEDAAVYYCVQYHRLPLSFGGGTKVEIK,0.73 / 0.87 / 1.03,0.88,0/9